Values quoted from earlier work, collected in patent US20250087329A1, “PERSONALISED RECOMMENDED DAILY INTAKE FOR NUTRIENTS BASED ON INDIVIDUAL GENETIC RISK SCORES” (SOCIETE DES PRODUITS NESTLE S.A., priority 2021, published 2025).

Conditions: Person; daily intake; cited from earlier work

Vitamin D
UL (tolerable upper intake level): 100 µg
